Yeast UUG start – modulators of yeast start codon fidelity, primary screen, whole organism, S. cerevisiae, single point, plate reader | AID 602363, 2012 | actives 0.13% (n = 350,000) | activity score, % at 18.7 µM | S. cerevisiae UUG-firefly luciferase reporter, luminescence/redox ratio;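 active means replicate mean at a twofold rise or more, about +100% in these data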;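 further: firefly luciferase made from a UUG start codon reports start codon fidelity; reporter light over untreated wells divided by growth signal over untreated wells; some hits fall short of that in this replicate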
SR-BI DiI-HDL act – activators of SR-BI mediated DiI-HDL uptake, primary screen, ldlA[mSR-BI] CHO cells, DiI fluorescence. 3 h; 100 = double the neutral-control signal. AID 504775, 2011. 320,000 compounds, 0.096% hits. activation, % at 12.5 µM;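 active means mean replicate activation of at least 60% and every replicate at or above 60%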;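 further: 0% = median plate neutral-control signal and 100% = twice that signal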
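System: LDL receptor-deficient CHO ldlA cells overexpressing murine SR-BI | Timing: 3 h uptake period with compound, 37 °C | Medium: HEPES-buffered (25 mM, pH 7.4) F12 plus 0.5% BSA | Dosing: Single-point compound dose | Signal: Bottom-read fluorescence, 550/595 nm | Read-out: Retained DiI signal reflecting DiI-HDL uptake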
SR-BI HDL uptake – inhibitors of SR-BI mediated HDL lipid uptake, primary screen, ldlA[mSR-BI] cells, fluorescence, single point | Scavenger receptor class B member 1 (Mus musculus), Q61009 | ldlA[mSR-BI] CHO cells, DiI-HDL uptake fluorescence, 3 h | inhibition, % at 12.5 µM | 320,000 compounds, 0.96% hits | AID 488896, 2010;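 active means mean replicate inhibition of at least 70% and a set share of replicates each scoring 70 or more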;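 further: 0% = median of neutral control wells and 100% = median of positive control wells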
GSIS activator – GLuc luminescence reporter in INS-1E cells, primary screen for activators of glucose-dependent secretion of insulin; AID 743287, 2014; activation, % at 16.6 µM; INS-1E GLuc reporter insulin secretion, 2-3 h; 370,000 compounds, 0.61% hits;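 active means lowest replicate activation of at least 40%, so every replicate reaches that level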;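 further: 0% = median of neutral control wells and 100% = median of IBMX positive control wells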
The depositor's hits bear a star. Compounds with a hit are over-represented: about 1.3% of the library has one in this group of screens.

What do the screens show for `Cc1cc(C)cc(OCC(=O)OCC(=O)NCCC2=CCCCC2)c1`?
SR-BI DiI-HDL act: 20; SR-BI HDL uptake: -20; GSIS activator: 4

How did Cc1ccc(S(=O)(=O)Nc2ccc3c(c2)C(=O)N([C@@H](C)CO)C[C@H](C)[C@@H](CN(C)Cc2ccncc2)O3)cc1 do in these assays?
Yeast UUG start: -21; GSIS activator: -10

Results for COC(=O)[C@]1(CC(C)C)N[C@H](c2ccc(-c3ccc(F)cc3)c(OC)c2)[C@@H]2C(=O)N(C)C(=O)[C@@H]21 ?
Yeast UUG start: -10; SR-BI DiI-HDL act: -89; SR-BI HDL uptake: 89*; GSIS activator: -19

How did CCC(C)Sc1ccc([C@H]2N[C@@](CC(C)C)(C(=O)OC)[C@H]3C(=O)N(C)C(=O)[C@@H]23)cc1 (stereo partly specified) do in these assays?
Yeast UUG start: -1; SR-BI DiI-HDL act: -79; SR-BI HDL uptake: 79*; GSIS activator: 0

What do the screens show for `CCSc1ccc([C@@H]2[C@@H]3C(=O)N(C)C(=O)[C@@H]3[C@]3(C(=O)OC)CCCCN23)cc1OC`?
Yeast UUG start: 9; SR-BI DiI-HDL act: 67*; SR-BI HDL uptake: -67; GSIS activator: 0

How did COC(=O)[C@]1(CC(C)C)N[C@H](c2ccc(SC3CCCCC3)c(OC)c2)[C@@H]2C(=O)N(C)C(=O)[C@@H]21 do in these assays?
Yeast UUG start: 17; SR-BI DiI-HDL act: -75; SR-BI HDL uptake: 75*; GSIS activator: 0

What do the screens show for `CCN1C(=O)[C@H]2[C@@H](c3ccc(-c4ccc(OC)cc4)c(OC)c3)N[C@@](CC(C)C)(C(=O)OC)[C@H]2C1=O`?
Yeast UUG start: -12; SR-BI DiI-HDL act: -35; SR-BI HDL uptake: 35

Results for CC(C)C[C@H]1COCc2cn(nn2)CC[C@@H](Cc2cccc(Cl)c2)C(=O)N1 ?
GSIS activator: 3

How did CO[C@@H]1CN(C)C(=O)c2cc(NC(=O)C3CC3)ccc2OC[C@H](C)NC[C@@H]1C do in these assays?
Yeast UUG start: -5; GSIS activator: 3

What do the screens show for `N#CC1=C(N)OC2=C(C(=O)CC(c3ccccc3)C2)C1c1ccoc1` (stereo unspecified)?
SR-BI DiI-HDL act: 29; SR-BI HDL uptake: -29; GSIS activator: 37

How did N#CC1=C(N)OC2=C(C(=O)CC(c3ccccc3)C2)C1c1cccnc1 (stereo unspecified) do in these assays?
SR-BI DiI-HDL act: 8; SR-BI HDL uptake: -8; GSIS activator: 47*

Results for C[C@H](CO)N1C[C@H](C)[C@H](CN(C)Cc2cccnc2)Oc2ncc(/C=C/c3ccccc3)cc2C1=O ?
Yeast UUG start: -12; GSIS activator: -23

Arranged by molar mass (low to high): part of the list above
Results for CC(C)C[C@H]1COCc2cn(nn2)CC[C@@H](Cc2cccc(Cl)c2)C(=O)N1 ?
GSIS activator: 3

Results for COC(=O)[C@]1(CC(C)C)N[C@H](c2ccc(-c3ccc(F)cc3)c(OC)c2)[C@@H]2C(=O)N(C)C(=O)[C@@H]21 ?
Yeast UUG start: -10; SR-BI DiI-HDL act: -89; SR-BI HDL uptake: 89*; GSIS activator: -19

How did COC(=O)[C@]1(CC(C)C)N[C@H](c2ccc(SC3CCCCC3)c(OC)c2)[C@@H]2C(=O)N(C)C(=O)[C@@H]21 do in these assays?
Yeast UUG start: 17; SR-BI DiI-HDL act: -75; SR-BI HDL uptake: 75*; GSIS activator: 0

What do the screens show for `CCN1C(=O)[C@H]2[C@@H](c3ccc(-c4ccc(OC)cc4)c(OC)c3)N[C@@](CC(C)C)(C(=O)OC)[C@H]2C1=O`?
Yeast UUG start: -12; SR-BI DiI-HDL act: -35; SR-BI HDL uptake: 35

Following part
How did CC(C)(C)OC(=O)N[C@@H](Cc1ccccc1)c1nnc(S(=O)(=O)Cc2ccccc2)o1 do in these assays?
GSIS activator: 169*

What do the screens show for `Cc1ccccc1CS(=O)(=O)c1nnc([C@H](Cc2ccccc2)NC(=O)OC(C)(C)C)o1`?
Yeast UUG start: -15; SR-BI DiI-HDL act: -10; SR-BI HDL uptake: 10; GSIS activator: 45*

What do the screens show for `CSc1ncccc1C(=O)NCCc1ccc(Cl)cc1`?
SR-BI DiI-HDL act: -13; SR-BI HDL uptake: 13; GSIS activator: -20

How did CSc1ncccc1C(=O)NCCc1ccccc1F do in these assays?
Yeast UUG start: -4; SR-BI DiI-HDL act: 3; SR-BI HDL uptake: -3; GSIS activator: 73*

How did CN1CCSc2ccc(C(=O)Nc3cccc(F)c3)cc21 do in these assays?
GSIS activator: 67*

How did c1ccc(-c2nnc(-c3ccccc3)c(-c3c[nH]c4ccccc34)n2)cc1 do in these assays?
Yeast UUG start: -18; SR-BI DiI-HDL act: -76; SR-BI HDL uptake: 76*

How did CCNc1ccc(C(=O)OCC)cc1NC(=O)c1cccc(N(C)C)c1 do in these assays?
SR-BI DiI-HDL act: -86; SR-BI HDL uptake: 86*; GSIS activator: 4

Results for CCn1c(NC(=O)c2cccc(Cn3cc(Cl)cn3)c2)nc2ccccc21 ?
Yeast UUG start: -16; SR-BI DiI-HDL act: -93; SR-BI HDL uptake: 93*

Results for CC(=O)N(C1CC(C)C(C#N)(C#N)C1(C#N)C#N)N(C)C (stereo unspecified) ?
SR-BI DiI-HDL act: -10; SR-BI HDL uptake: 10; GSIS activator: 167*

Results for C[C@@H]1CN([C@@H](C)CO)S(=O)(=O)c2ccc(-c3ccc(F)cc3)cc2O[C@@H]1CN(C)C(=O)Nc1ccc(F)cc1 ?
GSIS activator: -15

Results for Cc1ccc(S(=O)(=O)N2CCN(C(=O)COC(=O)/C=C/c3ccc([N+](=O)[O-])cc3)CC2)c(C)c1 ?
Yeast UUG start: -7; SR-BI DiI-HDL act: 5; SR-BI HDL uptake: -5; GSIS activator: 25

What do the screens show for `Cc1ccc(S(=O)(=O)N2CCN(C(=O)COC(=O)c3cc([N+](=O)[O-])ccc3NCCO)CC2)c(C)c1`?
Yeast UUG start: 7; SR-BI DiI-HDL act: -79; SR-BI HDL uptake: 79*

How did CCN(CC)c1nc(SCCOC(=O)Nc2ccccc2)nc(N(CC)CC)n1 do in these assays?
Yeast UUG start: -11; SR-BI DiI-HDL act: -87; SR-BI HDL uptake: 87*; GSIS activator: 8

What do the screens show for `CN(C)c1nc(SCCOC(=O)c2ccccc2)nc(N(C)C)n1`?
Yeast UUG start: -8; SR-BI DiI-HDL act: 3; SR-BI HDL uptake: -3

What do the screens show for `COc1ccccc1NC(=O)N[C@@H]1CC[C@@H](CC(=O)N2CCC(Cc3ccccc3)CC2)O[C@@H]1CO`?
Yeast UUG start: 17; GSIS activator: -15

What do the screens show for `COc1ccc(CNC(=O)C[C@H]2C=C[C@@H](NS(=O)(=O)c3cccc(OC)c3)[C@@H](CO)O2)cc1`?
GSIS activator: 11

Results for Cc1ccc(-c2csc3ncnc(SCC(=O)O)c23)cc1 ?
Yeast UUG start: -26; SR-BI DiI-HDL act: 12; SR-BI HDL uptake: -12; GSIS activator: 14

Results for COC(=O)CSc1ncnc2scc(-c3ccccc3)c12 ?
Yeast UUG start: -10; SR-BI DiI-HDL act: 3; SR-BI HDL uptake: -3; GSIS activator: 60*

How did CCCn1nc(C(=O)NC2CCCC2)c2ccccc2c1=O do in these assays?
Yeast UUG start: -4; SR-BI DiI-HDL act: -8; SR-BI HDL uptake: 8; GSIS activator: 58*

Results for CCCCn1nc(C(=O)NC2CCCCCC2)c2ccccc2c1=O ?
SR-BI DiI-HDL act: -13; SR-BI HDL uptake: 13; GSIS activator: 2

How did CS(=O)(=O)Nc1ccc2c(c1)[C@@H]1C[C@@H](CC(=O)NC3CCCC3)O[C@H](CO)[C@@H]1O2 do in these assays?
GSIS activator: 11

Results for Cn1c(C(=O)NN)cc2cc(Oc3ccccc3)ccc21 ?
Yeast UUG start: -4; SR-BI DiI-HDL act: -79; SR-BI HDL uptake: 79*

Results for CCNC(=O)C[C@H]1C=C[C@H](NC(=O)NC2CCCCC2)[C@H](CO)O1 ?
Yeast UUG start: -29; GSIS activator: -1

How did N#CCCn1cc(C=C(C#N)C#N)c(-c2ccc(Cl)cc2)n1 do in these assays?
SR-BI DiI-HDL act: 1; SR-BI HDL uptake: -1; GSIS activator: 30

High-throughput results deposited in PubChem BioAssay by Broad Institute.
